The record followed here is publication PMC10539361, “Allosteric modulation of the fish taste receptor type 1 (T1R) family by the extracellular chloride ion” (Scientific Reports, 2023).

Positions count from the first letter of the chain named.

Usually EC50 stands for the concentration needed to bring the measured effect to its halfway point. A higher EC50 goes with a less potent agent.

The target of one test is T1, hT1R2/hT1R3 T102E (Homo sapiens, UniProt Q7RTX0+Q8TE23, T102E).
T1 sequence (Q8TE23 20-839): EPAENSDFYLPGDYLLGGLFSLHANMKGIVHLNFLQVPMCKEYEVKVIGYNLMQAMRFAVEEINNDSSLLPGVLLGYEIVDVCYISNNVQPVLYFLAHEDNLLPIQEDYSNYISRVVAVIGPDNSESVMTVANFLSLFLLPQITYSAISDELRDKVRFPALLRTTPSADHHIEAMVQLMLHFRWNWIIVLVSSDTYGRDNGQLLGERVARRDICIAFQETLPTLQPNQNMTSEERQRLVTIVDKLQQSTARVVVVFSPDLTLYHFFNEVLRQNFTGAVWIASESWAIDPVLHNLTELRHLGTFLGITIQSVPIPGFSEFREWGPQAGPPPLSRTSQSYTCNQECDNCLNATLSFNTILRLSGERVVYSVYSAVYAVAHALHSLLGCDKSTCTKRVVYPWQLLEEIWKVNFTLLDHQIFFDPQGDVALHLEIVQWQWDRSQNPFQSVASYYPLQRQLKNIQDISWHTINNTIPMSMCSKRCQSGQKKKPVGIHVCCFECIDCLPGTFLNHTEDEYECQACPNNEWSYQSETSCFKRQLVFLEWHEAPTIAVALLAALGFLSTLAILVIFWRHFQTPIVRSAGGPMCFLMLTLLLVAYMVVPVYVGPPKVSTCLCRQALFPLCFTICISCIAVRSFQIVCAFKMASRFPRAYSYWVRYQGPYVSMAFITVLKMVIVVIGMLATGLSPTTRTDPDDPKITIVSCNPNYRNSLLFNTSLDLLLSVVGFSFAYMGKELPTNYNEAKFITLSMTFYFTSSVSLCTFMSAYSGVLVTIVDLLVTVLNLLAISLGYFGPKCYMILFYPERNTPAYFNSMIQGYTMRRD
T1 sequence (Q7RTX0 21-852 T102E): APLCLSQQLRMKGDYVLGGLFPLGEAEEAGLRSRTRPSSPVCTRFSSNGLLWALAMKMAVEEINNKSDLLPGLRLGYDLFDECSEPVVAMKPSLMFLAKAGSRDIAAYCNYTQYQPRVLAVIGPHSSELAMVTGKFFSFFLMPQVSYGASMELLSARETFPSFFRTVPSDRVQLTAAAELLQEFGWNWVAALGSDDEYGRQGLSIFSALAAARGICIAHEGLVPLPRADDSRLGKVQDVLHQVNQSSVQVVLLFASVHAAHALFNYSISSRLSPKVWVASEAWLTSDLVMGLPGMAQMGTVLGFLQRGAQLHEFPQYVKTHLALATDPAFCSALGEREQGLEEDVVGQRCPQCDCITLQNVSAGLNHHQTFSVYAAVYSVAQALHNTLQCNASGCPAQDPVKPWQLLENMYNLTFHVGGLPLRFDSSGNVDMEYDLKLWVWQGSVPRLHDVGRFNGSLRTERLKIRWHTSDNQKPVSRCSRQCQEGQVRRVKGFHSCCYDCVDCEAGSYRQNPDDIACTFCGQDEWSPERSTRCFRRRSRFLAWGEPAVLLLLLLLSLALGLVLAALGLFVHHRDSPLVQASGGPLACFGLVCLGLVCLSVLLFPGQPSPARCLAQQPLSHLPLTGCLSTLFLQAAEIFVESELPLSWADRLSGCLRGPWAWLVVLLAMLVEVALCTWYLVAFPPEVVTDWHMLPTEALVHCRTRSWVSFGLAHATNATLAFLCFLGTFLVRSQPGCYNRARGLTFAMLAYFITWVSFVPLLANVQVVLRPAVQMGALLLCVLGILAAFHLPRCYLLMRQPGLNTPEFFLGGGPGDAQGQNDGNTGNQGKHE
Kind of test: Ca2+ mobilization dose-response assay, site X mutant hT1R2/hT1R3 T102E. As to conditions: EC50, [Cl-]o=141.4 mM (high Cl- buffer); unit inferred. A general note: A change in cytosolic calcium serves as a functional read-out for many receptors and channels.

Another test deals with T2, hT1R2/hT1R3 (Homo sapiens, UniProt Q7RTX0+Q8TE23).
T2 construct: expressed in transfected cells
T2 sequence (Q8TE23 20-839): T1 sequence (Q8TE23 20-839)
T2 sequence (Q7RTX0 21-852): T1 sequence (Q7RTX0 21-852 T102E) with E82T
The experiment in a line: Ca2+ mobilization dose-response assay, stable cells expressing hT1R2/hT1R3 with G16gust44. It counts as cell-based. Conditions: [Cl-]o=141.4 mM (high Cl- buffer); unit inferred.

Another test addresses T3, zfT1R2a/zfT1R3 (Danio rerio, UniProt A0A8M1N8F9+Q2MHK9).
T3 sequence (A0A8M1N8F9 26-825): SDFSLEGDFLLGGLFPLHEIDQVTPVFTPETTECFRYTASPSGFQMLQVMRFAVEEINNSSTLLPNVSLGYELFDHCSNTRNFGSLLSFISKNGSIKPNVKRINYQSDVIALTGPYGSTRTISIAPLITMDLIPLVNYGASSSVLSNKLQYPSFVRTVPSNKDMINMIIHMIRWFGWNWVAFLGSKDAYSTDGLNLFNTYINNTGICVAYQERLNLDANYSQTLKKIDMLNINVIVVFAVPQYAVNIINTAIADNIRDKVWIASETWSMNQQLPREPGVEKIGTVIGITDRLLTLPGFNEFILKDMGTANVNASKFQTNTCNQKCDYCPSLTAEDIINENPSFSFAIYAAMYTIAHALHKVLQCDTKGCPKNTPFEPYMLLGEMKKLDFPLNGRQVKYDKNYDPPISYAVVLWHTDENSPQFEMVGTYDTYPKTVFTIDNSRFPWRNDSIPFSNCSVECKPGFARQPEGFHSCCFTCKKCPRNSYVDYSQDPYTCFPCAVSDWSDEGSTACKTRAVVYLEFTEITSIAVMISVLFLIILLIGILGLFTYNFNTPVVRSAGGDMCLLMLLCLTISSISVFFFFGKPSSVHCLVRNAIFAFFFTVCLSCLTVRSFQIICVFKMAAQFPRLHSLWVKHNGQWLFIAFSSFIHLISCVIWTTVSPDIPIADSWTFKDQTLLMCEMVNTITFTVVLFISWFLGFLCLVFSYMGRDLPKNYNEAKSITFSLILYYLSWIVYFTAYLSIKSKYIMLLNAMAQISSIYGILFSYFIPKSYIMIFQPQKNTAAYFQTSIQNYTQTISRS
T3 sequence (Q2MHK9 25-850): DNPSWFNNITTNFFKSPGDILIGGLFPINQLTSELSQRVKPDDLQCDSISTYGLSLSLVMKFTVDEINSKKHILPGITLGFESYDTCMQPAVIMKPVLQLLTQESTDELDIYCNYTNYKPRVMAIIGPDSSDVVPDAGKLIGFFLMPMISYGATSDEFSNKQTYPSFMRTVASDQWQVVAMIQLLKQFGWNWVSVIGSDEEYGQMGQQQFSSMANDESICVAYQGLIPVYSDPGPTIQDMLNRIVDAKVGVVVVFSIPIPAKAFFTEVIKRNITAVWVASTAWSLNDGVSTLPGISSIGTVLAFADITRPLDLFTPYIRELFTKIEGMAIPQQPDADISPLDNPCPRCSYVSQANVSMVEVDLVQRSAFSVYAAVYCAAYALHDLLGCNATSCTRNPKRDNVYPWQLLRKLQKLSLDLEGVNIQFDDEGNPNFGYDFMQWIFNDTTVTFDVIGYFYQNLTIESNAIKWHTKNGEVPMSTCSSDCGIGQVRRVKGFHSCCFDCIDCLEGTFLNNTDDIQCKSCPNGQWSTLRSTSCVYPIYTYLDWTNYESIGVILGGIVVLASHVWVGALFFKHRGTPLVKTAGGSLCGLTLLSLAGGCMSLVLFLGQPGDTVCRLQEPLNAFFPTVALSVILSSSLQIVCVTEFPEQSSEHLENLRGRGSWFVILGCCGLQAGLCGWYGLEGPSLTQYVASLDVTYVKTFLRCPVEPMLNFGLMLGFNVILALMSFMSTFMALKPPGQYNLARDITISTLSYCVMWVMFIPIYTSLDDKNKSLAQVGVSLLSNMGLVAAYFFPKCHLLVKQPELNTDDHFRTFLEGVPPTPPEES
The experiment in a line: Ca2+ mobilization dose-response assay, stable cells expressing zfT1R2a/zfT1R3 with G16gust44. As to conditions: EC50, [Cl-]o=141.4 mM (high Cl- buffer); unit inferred.

A further test deals with T4, mfT1R2a/mfT1R3 (Oryzias latipes, UniProt Q2MHK2+Q2MHK5).
T4 sequence (Q2MHK5 20-819): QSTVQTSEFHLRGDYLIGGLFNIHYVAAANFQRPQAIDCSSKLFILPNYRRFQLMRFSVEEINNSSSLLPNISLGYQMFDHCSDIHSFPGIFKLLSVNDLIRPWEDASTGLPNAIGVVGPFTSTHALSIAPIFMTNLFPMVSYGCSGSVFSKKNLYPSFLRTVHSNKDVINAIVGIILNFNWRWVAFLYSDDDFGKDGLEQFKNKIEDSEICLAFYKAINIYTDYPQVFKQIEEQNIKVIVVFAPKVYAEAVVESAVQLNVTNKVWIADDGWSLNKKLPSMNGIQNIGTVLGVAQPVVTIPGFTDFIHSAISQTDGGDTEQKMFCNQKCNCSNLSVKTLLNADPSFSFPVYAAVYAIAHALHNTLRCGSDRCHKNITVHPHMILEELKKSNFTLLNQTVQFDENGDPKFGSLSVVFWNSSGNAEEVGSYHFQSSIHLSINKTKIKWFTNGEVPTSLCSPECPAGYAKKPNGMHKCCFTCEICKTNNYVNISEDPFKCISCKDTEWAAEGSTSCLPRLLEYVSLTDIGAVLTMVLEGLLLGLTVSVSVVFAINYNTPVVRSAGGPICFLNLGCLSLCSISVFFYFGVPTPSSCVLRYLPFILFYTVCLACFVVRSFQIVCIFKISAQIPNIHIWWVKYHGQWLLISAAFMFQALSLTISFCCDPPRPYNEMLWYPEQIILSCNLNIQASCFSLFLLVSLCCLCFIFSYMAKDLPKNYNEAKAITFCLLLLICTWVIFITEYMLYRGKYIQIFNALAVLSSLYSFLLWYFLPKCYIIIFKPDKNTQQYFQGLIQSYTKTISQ
T4 sequence (Q2MHK2 20-853): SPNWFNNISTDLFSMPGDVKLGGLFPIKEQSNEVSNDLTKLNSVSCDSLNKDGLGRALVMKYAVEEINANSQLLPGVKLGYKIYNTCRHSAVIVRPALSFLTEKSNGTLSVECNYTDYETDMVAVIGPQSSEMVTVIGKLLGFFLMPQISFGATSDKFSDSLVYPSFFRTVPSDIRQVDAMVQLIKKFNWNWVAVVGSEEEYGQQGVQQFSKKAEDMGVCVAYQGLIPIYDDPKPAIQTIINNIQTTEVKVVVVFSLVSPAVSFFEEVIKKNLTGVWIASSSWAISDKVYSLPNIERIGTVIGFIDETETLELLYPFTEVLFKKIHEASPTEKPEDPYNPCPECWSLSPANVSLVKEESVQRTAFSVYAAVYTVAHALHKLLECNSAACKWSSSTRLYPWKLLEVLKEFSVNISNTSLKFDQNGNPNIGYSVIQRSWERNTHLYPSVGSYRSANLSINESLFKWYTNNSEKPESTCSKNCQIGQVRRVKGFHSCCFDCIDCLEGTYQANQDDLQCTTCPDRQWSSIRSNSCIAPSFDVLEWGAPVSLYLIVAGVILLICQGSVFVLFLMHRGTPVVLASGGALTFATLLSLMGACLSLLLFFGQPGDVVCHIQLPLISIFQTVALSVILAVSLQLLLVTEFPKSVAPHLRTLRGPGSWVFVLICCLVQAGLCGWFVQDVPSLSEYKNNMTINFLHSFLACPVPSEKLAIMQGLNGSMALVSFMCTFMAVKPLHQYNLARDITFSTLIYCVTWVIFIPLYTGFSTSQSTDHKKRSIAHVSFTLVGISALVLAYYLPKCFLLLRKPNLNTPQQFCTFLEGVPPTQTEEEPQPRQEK
Kind of test: Ca2+ mobilization dose-response assay, stable cells expressing mfT1R2a/mfT1R3 with G16gust44. Conditions: EC50, [Cl-]o=141.4 mM (high Cl- buffer); unit inferred.

For `OC[C@H]1O[C@H](O[C@]2(CCl)O[C@H](CCl)[C@@H](O)[C@@H]2O)[C@H](O)[C@@H](O)[C@H]1Cl` [sucralose, Sucralose], the figures for the EC50 on hT1R2/hT1R3 T102E and on hT1R2/hT1R3 were 224 µM and 77.6 µM, respectively.
`C[C@H](N)C(=O)O` [L-Ala, L-alanine] came in with an EC50 at zfT1R2a/zfT1R3 of 137 µM.
As for `NC(=O)CC[C@H](N)C(=O)O` [L-Gln, L-glutamine], the EC50 on mfT1R2a/mfT1R3 is 62.5 µM.
